Literature values, collected in patent US20180305370A1 (ORPHOMED, INC., priority 2015, published 2018).

Target: δ opioid receptor (Homo sapiens, UniProt P41143)
Conditions: cited from earlier work

CO[C@]12CC[C@@]3(C[C@@H]1[C@](C)(O)C(C)(C)C)[C@H]1Cc4ccc(O)c5c4[C@@]3(CCN1CC1CC1)[C@H]2O5 [Buprenorphine, buprenorphine]
Activity: Antagonist
